Experimental data from patent US11845808B2, “Peptide inhibitors of interleukin-23 receptor and their use to treat inflammatory diseases” (Janssen Biotech, Inc., priority 2020, dated 2023).

Sequences of proteins named here, by UniProt entry; tags and fusion partners are left off. Residues count along the entry.
UniProt Q5VWK5, 24-629 limits assumed: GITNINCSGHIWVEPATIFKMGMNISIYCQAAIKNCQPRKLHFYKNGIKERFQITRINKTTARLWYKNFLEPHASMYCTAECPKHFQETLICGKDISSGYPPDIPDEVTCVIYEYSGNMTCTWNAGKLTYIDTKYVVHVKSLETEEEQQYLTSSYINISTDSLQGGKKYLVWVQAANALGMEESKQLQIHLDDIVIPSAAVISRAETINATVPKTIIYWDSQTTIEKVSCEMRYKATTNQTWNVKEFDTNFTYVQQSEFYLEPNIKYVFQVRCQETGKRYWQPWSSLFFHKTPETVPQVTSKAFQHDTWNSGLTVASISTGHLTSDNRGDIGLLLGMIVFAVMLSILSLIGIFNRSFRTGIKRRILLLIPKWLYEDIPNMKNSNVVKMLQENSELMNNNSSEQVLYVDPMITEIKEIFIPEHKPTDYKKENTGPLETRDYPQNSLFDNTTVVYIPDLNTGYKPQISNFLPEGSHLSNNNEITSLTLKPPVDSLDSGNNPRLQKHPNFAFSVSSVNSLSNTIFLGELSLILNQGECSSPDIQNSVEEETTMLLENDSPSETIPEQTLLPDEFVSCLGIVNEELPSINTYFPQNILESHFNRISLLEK

How the values were obtained:
[1] = Stability in simulated intestinal fluid (SIF); format: in vitro ADME; conditions: 100 fold dilution of standard SIF concentration, 37° C., 20 μM
Experimental: Studies were carried out in simulated intestinal fluid (SIF) and simulated gastric fluid (SGF) to evaluate gastric stability of the peptide inhibitors of the present invention. In addition, studies were carried out to assess redox stability of the peptide inhibitors of the present invention.
SIF was prepared by adding 6.8 g of monobasic potassium phosphate and 10.0 g of pancreatin to 1.0 L of water. After dissolution, the pH was adjusted to 6.8 using NaOH. DMSO stocks (2 mM) were first prepared for the test compounds. Aliquots of the DMSO solutions were dosed into 6 individual tubes, each containing 0.5 mL of SIF, which is pre-warmed to 37° C. The final test compound concentration was 20 μM. The vials were kept in a benchtop Thermomixer® for the duration of the experiment. At each timepoint (0, 5, 10, 20, 40, 60, or 360 minutes or 24 hours), 1.0 mL of acetonitrile containing 1% formic acid was added to one vial to terminate the reaction. Samples were stored at 4° C. until the end of the experiment. After the final timepoint is sampled, the tubes were mixed and then centrifuged at 3,000 rpm for 10 minutes. Aliquots of the supernatant were removed, diluted 1:1 into distilled water containing internal standard, and analyzed by LCMS/MS. Percent remaining at each timepoint was calculated based on the peak area response ratio of test to compound to internal standard. Time 0 was set to 100%, and all later timepoints were calculated relative to time 0. Half-lives were calculated by fitting to a first-order exponential decay equation using Graphpad.

[2] = Stability in human fecal homogenate; format: in vitro ADME; conditions: 20% human fecal homogenate, 37° C., 20 μM
Experimental: (§1) Studies were carried out in human or cynomlogus monkey fecal homogenate to evaluate gastrointestinal stability of the peptide inhibitors of the present invention.
(§2) Fecal homogenate (20%) was prepared by adding 4 mL of growth medium (1 liter contains 2 g peptone water powder, 2 g yeast extract, 0.1 g NaCl, 0.04 g KH2PO4, 0.01 g CaCl2·6H2O, 0.01 g MgSO4.7H2O, 2 mL Tween 80, 0.5 g bile salts, 0.5 g L-cysteine HCl, 2 g NaHCO3, and 10 μL Vitamin K, pH adjusted to 6.8, and sterilized by filtration through a 0.22 μm filter) to every gram of feces (pooled freshly collected human or cynomolgus monkey feces). The suspension was vortexed to break up large clumps, and homogenized using a bead mill homogenizer. Centrifuged the homogenate at 2800×g for 15 min. The supernatant is taken out and used for incubations. DMSO stocks (10 mM) were first prepared for the test compounds. Incubations were performed in an anaerobic chamber conditioned at 37° C. Aliquots of the DMSO solutions were dosed into 1.0 mL aliquots of 20% fecal homogenate, which are pre-warmed to 37° C. The final test compound concentration was 20 μM. At each timepoint (0, 20 min, 1, 3, 6, or 24 hours), 100 μL aliquot of each incubation mixture is taken out and added to separate tubes containing 300 μL of 50% acetonitrile/50% methanol and an internal standard to terminate the reaction. Samples were taken out of the anaerobic chamber and stored at 4° C. until the end of the experiment. After the final timepoint is sampled, the tubes were mixed and then centrifuged at 3,000 rpm for 10 minutes. Aliquots of the supernatant were removed, diluted 1:1 into distilled water containing 0.1% formic acid, and analyzed by LC/MS/MS. Percent remaining at each timepoint was calculated based on the peak area response ratio of test to compound to internal standard. Time 0 was set to 100%, and all later timepoints were calculated relative to time 0. Half-lives were calculated by fitting to a first-order exponential decay equation using Graphpad or Excel.

[3] = target: IL-23 induced IFNγ in natural killer (NK) cells (Homo sapiens, UniProt Q5VWK5); experiment: NK cell based assay (IL-23/IL-18 induced IFNγ); conditions: IL-23 at EC50 to EC75 and IL-18 10 ng/mL, IFNγ in supernatant after 20 to 24 hours
Excerpt: Example 3: NK Cell Based Assay

[4] = Stability in cynomolgus monkey fecal homogenate; format: in vitro ADME; conditions: 20% cynomolgus monkey fecal homogenate, 37° C., 20 μM
Experimental: as §1, §2

Stability in rat plasma = format: in vitro ADME; conditions: SD rat plasma, 37° C., 20 μM
Experimental: Example 6: Stability of Peptide Inhibitors in Rat Plasma
Peptides of interest (20 μM) were incubated with pre-warmed rat plasma (SD rat, mixed gender pooled, EDTA, filtered through 0.22 μm, BioreclamationIVT) at 37° C. Aliquots were taken at various time points up to 24 hours (e.g. 0, 0.25, 1, 3, 6 and 24 hr), and immediately quenched with 4 volumes of organic solvent (acetonitrile/methanol (1:1) and 0.1% formic acid, containing 1 μM internal standard). Quenched samples were stored at 4° C. until the end of the experiment and centrifuged at 4,000 rpm for 10 minutes. The supernatant were diluted 1:1 with deionized water and analyzed using LC-MS. Percentage remaining at each time point was calculated based on the peak area ratio (analyte over internal standard) relative to the initial level at time zero. Half-lives were calculated by fitting to a first-order exponential decay equation using GraphPad.

Row | Substance | SIF t½ [1] | t½: Human Feces anaerobic [2] | IC50 [3] | t½: Monkey Feces anaerobic [4] | t½: Rat Plasma EDTA (Stability in rat plasma)
1 | Ac-[Pen]-N-T-[W(7-Me)]-[Lys(Ac)]-[Pen]-Phe[4-(2-aminoethoxy)]-[2-Nal]-[a-MeLys]-[Lys(Ac)]-N-[2Pal]-NH2 [Peptide 79] | 0.3 h | 22.9 h | 2.68 nM | 19 h | –
2 | Ac-[Pen]-N-T-[W(7-Me)]-[Lys(Ac)]-[Pen]-Phe[4-(2-aminoethoxy)]-[2-Nal]-[THP]-E-[h(Ser)]-H-[Sarc]-NH2 [Peptide 65] | >24.0 h | 14.7 h | 1.8 nM | 12.5 h | >24.0 h
3 | Ac-[Pen]-N-T-[(W(7-(3-pyrazol-1-yl))]-[Lys(Ac)]-[Pen]-Phe[4-(2-aminoethoxy)]-[2-Nal]-[THP]-E-N-[3Pal]-[Sarc]-NH2 [Peptide 148] | >24.0 h | >24.0 h | 0.025 nM | >24.0 h | –
4 | Ac-[Pen]-N-T-[W(7-Ph)]-[Lys(Ac)]-[Pen]-Phe[4-(2-aminoethoxy)]-[2-Nal]-[THP]-E-N-H-[(D)NMeTyr]-NH2 [Peptide 62] | >24.0 h | >24.0 h | 2.1 nM | >24.0 h | >24.0 h
5 | Ac-[Pen]-N-T-[W(7-Me)]-[Lys(Ac)]-[Pen]-Phe[4-(2-aminoethoxy)]-[3-Quin]-[a-MeLys]-[Lys(Ac)]-N-[(D)His]-[Sarc]-NH2 [Peptide 4] | >24.0 h | >24.0 h | 5.81 nM | >24.0 h | >24.0 h
6 | Ac-[Pen]-N-T-[W(7-Me)]-[Lys(Ac)]-[Pen]-Phe[4-(2-aminoethoxy)]-[2-Nal]-[a-MeLys]-[Lys(Ac)]-N-[(D)Leu]-[Sarc]-NH2 [Peptide 20] | >24.0 h | >24.0 h | 2.88 nM | >24.0 h | 20.6 h
7 | Ac-[Pen]-N-T-[W(7-Me)]-[Lys(Ac)]-[Pen]-Phe[4-(2-aminoethoxy)]-[3-Quin]-[a-MeLys]-[Lys(Ac)]-N-[(D)Lys]-[Sarc]-NH2 [Peptide 7] | >24.0 h | >24.0 h | 2.62 nM | >24.0 h | >24.0 h
8 | Ac-[Pen]-N-T-W-[Lys(Ac)]-[Pen]-Phe[4-(2-aminoethoxy)]-[2-Nal]-[THP]-E-N-[3Pal]-[Sarc]-NH2 [Peptide 162] | – | – | 0.029 nM | – | –
9 | Ac-[Pen]-N-T-[W(7-Me)]-[Lys(Ac)]-[Pen]-[Phe(4-CONH2)]-[2-Nal]-[THP]-E-N-H-[Sarc]-NH2 [Peptide 74] | 14.6 h | 6.1 h | 1.82 nM | 17.5 h | >24.0 h
10 | Ac-[Pen]-N-T-[W(7-Me)]-[Lys(Ac)]-[Pen]-Phe[4-(2-aminoethoxy)]-[2-Nal]-[THP]-E-G-H-[Sarc]-NH2 [Peptide 64] | >24.0 h | 13.3 h | 1.42 nM | 14 h | >24.0 h
11 | Ac-[Pen]-N-T-[W(7-Ph)]-[Lys(Ac)]-[Pen]-Phe[4-(2-aminoethoxy)]-[2-Nal]-[a-MeLys]-[Lys(Ac)]-N-[3Pal]-[(D)NMeTyr]-NH2 [Peptide 122] | >24.0 h | – | 0.079 nM | – | >24.0 h
12 | Ac-[Pen]-N-T-[W(7-Me)]-[Lys(Ac)]-[Pen]-Phe[4-(2-aminoethoxy)]-[3Quin]-[a-MeLys]-[Lys(Ac)]-N-[2Pal]-NH2 [Peptide 78] | – | – | 256 nM | – | –
13 | Ac-[Pen]-N-T-[W(7-Me)]-[Lys(Ac)]-[Pen]-Phe[4-(2-aminoethoxy)]-[2-Nal]-[THP]-E-N-[(D)Leu]-[Sarc]-NH2 [Peptide 24] | >24.0 h | >24.0 h | – | >24.0 h | 1 h
14 | Ac-[Abu]-N-T-[W(7-Ph)]-Q-[Cys]-Phe[4-(2-aminoethoxy)]-[2-Nal]-[a-MeLys]-[Lys(Ac)]-N-H-[Sarc]-NH2 [Peptide 95] | >24.0 h | 13.3 h | – | 17.3 h | >24.0 h
15 | Ac-[Pen]-N-T-[W(7-Me)]-[Lys(Ac)]-[Pen]-Phe[4-(2-aminoethoxy)]-[W(7-i-Pr)]-[a-MeLys]-[Lys(Ac)]-N-H-[Sarc]-NH2 [Peptide 38] | >24.0 h | >24.0 h | – | >24.0 h | >24.0 h
16 | Ac-[Pen]-N-T-[W(7-Me)]-[Lys(Gly)]-[Pen]-Phe[4-(2-aminoethoxy)]-[2-Nal]-[a-MeLys]-[Lys(Ac)]-N-H-[Sarc]-NH2 [Peptide 27] | >24.0 h | 4.4 h | – | 11.6 h | >24.0 h
17 | Ac-[Pen]-N-T-[W(7-CN)]-[Lys(Ac)]-[Pen]-Phe[4-(2-aminoethoxy)]-[2-Nal]-[THP]-E-N-[3Pal]-[Sarc]-NH2 [Peptide 155] | – | – | 0.049 nM | – | –
18 | Ac-[Pen]-N-T-[W(7-(2-OMePh)]-[Lys(Ac)]-[Pen]-Phe[4-(2-aminoethoxy)]-[2-Nal]-[a-MeLys]-[Lys(Ac)]-N-H-[Sarc]-NH2 [Peptide 49] | 23.8 h | >24.0 h | – | >24.0 h | >24.0 h
19 | Ac-[Pen]-N-T-[W(7-Ph)]-[Lys(Ac)]-[Pen]-Phe[4-(2-aminoethoxy)]-[2-Nal]-[THP]-E-N-[3Pal]-[(D)NMeTyr]-NH2 [Peptide 123] | >24.0 h | – | 0.042 nM | – | >24.0 h
